Test results published in patent US20110212484A1, “In Vitro Model of Focal Ischemia” (priority 2008, published 2011).

Tested on: cortical neurons
Test: Focal glutamate perfusion of brain slices, intracellular recordings of membrane potential
Details: 20 mM glutamate, neuron located 0.9 mm from the focal perfusion

**Q.** Which “membrane potential of neuron (depolarization)” value does the source give for `N[C@@H](CCC(=O)O)C(=O)O` [glutamate] here?
**A.** depolarization was delayed
